# According to ChEMBL document CHEMBL3797168 (J Med Chem, 2016):
# By UniProt entry, the sequences of proteins in these tests, tags left out.
# UniProt P0DMS8, whole entry: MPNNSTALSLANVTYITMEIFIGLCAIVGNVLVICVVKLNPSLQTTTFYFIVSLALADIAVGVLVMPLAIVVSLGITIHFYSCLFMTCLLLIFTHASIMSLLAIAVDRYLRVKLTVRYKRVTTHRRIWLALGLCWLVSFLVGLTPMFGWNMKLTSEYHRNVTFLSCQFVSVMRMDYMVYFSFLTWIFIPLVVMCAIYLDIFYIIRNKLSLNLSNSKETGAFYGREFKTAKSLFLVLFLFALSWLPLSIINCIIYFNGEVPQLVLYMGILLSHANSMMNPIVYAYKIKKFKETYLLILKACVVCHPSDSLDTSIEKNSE
# Molecular target: Adenosine receptor A3 (Homo sapiens, UniProt P0DMS8)
# Assay: Displacement of [125I]N6-(4-amino-3-iodobenzyl)adenosine-5'-N-methyl-uronamide from human adenosine A3 receptor expressed in CHO cell membranes incubated for 60 mins by liquid scintillation counting analysis
smiles,measurement,value
CNC(=O)[C@@]12C[C@@H]1[C@@H](n1cnc3c(C)nc(C#Cc4cnccn4)nc31)[C@H](O)[C@@H]2O,Ki,343 nM
